{"source": "patent US20180055915A1", "about": "“COMPOSITIONS AND METHODS FOR TREATING PROSTATE CANCER” (UNIVERSITY OF ROCHESTER, priority 2016, published 2018)", "origin": "cited, not measured here", "test_system": "wild type AR, ARv7, AR-F876L", "details": "cited from earlier work", "data": [{"molecule": "CNC(=O)c1ccc(N2C(=S)N(c3ccc(C#N)c(C(F)(F)F)c3)C(=O)C2(C)C)cc1F", "note": "[Enz, 4-(3-(4-Cyano-3-(trifluoromethyl)phenyl)-5,5-dimethyl-4-oxo-2-thioxoimidazolidin-1-yl)-2-fluoro-N-methylbenzamide]", "values": [{"measurement": "degradation of wild type AR, ARv7 and AR mutants including AR-F876L", "result": "not"}]}]}
